This is an account of results in patent US11116771B2, “G protein-coupled receptor (GPCR) modulation by imipridones” (Oncoceutics, Inc., priority 2016, dated 2021).

Common to all, as to conditions: 5 nM-5 μM, 72 h, n=3
One assay relates to MV411 AML cells. As to the kind of experiment: Cell viability, MV411 AML cells. In kind it is cell-based.
Assay [1] concerns MHH-ES-1 (Ewing's sarcoma).
The next assay concerns MOLM14 AML cells. The experiment in a line: Cell viability, MOLM14 AML cells. In kind it is cell-based.

Broadly, the IC50 is the concentration that inhibits the measured activity by half. A low value points to inhibition by little substance. Take `Cc1ccccc1CN1C(=O)C2=C(CCN(Cc3ccccc3)C2)N2CCN=C12`: the IC50 in the assay with MV411 AML cells was determined as 3.25 µM; in assay [1] it was 5.65 µM; with MOLM14 AML cells it was 3.92 µM.
